# AlphaSeq binding of Ab-14 light chain variants to a spike HR2 peptide

From the AlphaSeq antibody data of Engelhart et al. 2022 (doi:10.1038/s41597-022-01779-4), copy in the FLAb collection.

Target peptide (SARS-CoV-2 spike, HR2 region): PDVDLGDISGINAS

Parent: Ab-14, a human scFv built as VH, three GGGGS repeats, VL. Only the CDRs of the light chain vary.
VH: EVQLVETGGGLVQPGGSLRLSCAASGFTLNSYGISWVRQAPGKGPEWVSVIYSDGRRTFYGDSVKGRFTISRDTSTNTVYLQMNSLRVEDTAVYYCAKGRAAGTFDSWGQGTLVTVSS
VL: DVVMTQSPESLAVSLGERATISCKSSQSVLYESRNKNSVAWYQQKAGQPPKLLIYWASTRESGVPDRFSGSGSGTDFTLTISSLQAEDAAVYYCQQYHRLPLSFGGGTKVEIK

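The parent was found by panning a naive human phage display library on the peptide. Library AAYL50 holds single substitutions and randomly drawn double and triple substitutions in the CDRs. Affinity was read by AlphaSeq, a pooled yeast mating assay with surface-displayed partners. After mating in shaken culture at 30 °C for 16 h, diploids were selected and their barcode pairs sequenced. Scores were corrected for input abundance and mapped to Kd with protein pairs of known affinity run in the same pool. Mating was done three times.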

Variants are written as CDR1, CDR2 and CDR3 of the light chain (limits as in the source). Parent: KSSQSVLYESRNKNSVA, WASTRES, QQYHRLPLS.
The Kd shown is the geometric mean over detected replicates; a lower Kd is a better binder.
"no signal" marks a missing value. The strain was present, yet no cells mated with the target were sequenced in any replicate, which points to weak or no binding.
Entries are sorted by rising average, undetected variants last.
Three control strains display no target. For library AAYL50, 18% of the pairings with them gave a signal, with a median of 15 µM and one signal in twenty below 970 nM, so weak values seen in few replicates may be background. Also given: how often the same scFv was detected with the empty control strains.

| # | CDR-L1 | CDR-L2 | CDR-L3 | Kd (apparent) | detected | empty controls |
|---|---|---|---|---|---|---|
| 1 | KSSQSVLYESRNKNSIA | KASTRES | QQYHRLPLS | 3.4 nM | 3/3 | 1/9 |
| 2 | NSSQSVLLESRNKNSVA | WASTRES | QQYHRLPLS | 5.7 nM | 3/3 | 2/9 |
| 3 | KSSQSVLYESRNQNSVA | WASTREK | QQYHRLNLS | 6.1 nM | 3/3 | 2/9 |
| 4 | KSSQSVLYESRNKNSVA | WASVRER | QQYHRLELS | 7.0 nM | 3/3 | 1/9 |
| 5 | KSSQSVLYESGNKNSVA | EASTREF | QQYHRLPLS | 8.4 nM | 3/3 | 3/9 |
| 6 | KSSQSVNYESRNKNSVA | WGSTRES | QQYHCLPLS | 8.9 nM | 3/3 | 0/9 |
| 7 | KSSQSVLYESRNKNSVA | WASTRES | QQYYRVPLY | 11 nM | 3/3 | 2/9 |
| 8 | KQSQSVLYESHNTNSVA | WASTRES | QQYHRLPLS | 13 nM | 3/3 | 1/9 |
| 9 | KSSGSVLYESRNKNSVA | KASTRES | QQYHRLPLA | 19 nM | 3/3 | 0/9 |
| 10 | KSSQSCLYESRNKNSVA | GASTRES | QQYHRLQLS | 43 nM | 3/3 | 1/9 |
| 11 | KCSQSVLYESRHKNSVA | WASTRES | QGYHRLPLS | 71 nM | 3/3 | 3/9 |
| 12 | KSSQSVLYESRNRNSVA | WASTRET | TQYHRLPLS | 81 nM | 3/3 | 1/9 |
| 13 | KSSHSVLYESRNKLSVA | WASMRES | QQYHRLPLS | 87 nM | 3/3 | 4/9 |
| 14 | KSSQSVLYESRDKKSVA | WASTRES | QQYHRFPLS | 89 nM | 3/3 | 0/9 |
| 15 | KSSQSVLYESRNKNSVA | WASMRYS | QQYHRLPLH | 100 nM | 3/3 | 1/9 |
| 16 | KSSQSVLYESRNKNSDA | WASTRES | QQYLRLPLS | 120 nM | 1/3 | 0/9 |
| 17 | KSSQSVEYESRNKNSVA | WAHTRES | AQYHRLPLS | 120 nM | 3/3 | 6/9 |
| 18 | KSSQSVLYESRNWNSVA | WASTRES | QQLHRLRLS | 130 nM | 3/3 | 3/9 |
| 19 | MSSQFMLYESRNKNSVA | WASTRES | QQYHRLPLS | 170 nM | 3/3 | 1/9 |
| 20 | KSSQSVLYVSRNKNNVA | WASTRES | QPYHRLPLS | 210 nM | 3/3 | 4/9 |
| 21 | KSSNFVLKESRNKNSVA | WASTRES | QQYHRLPLS | 320 nM | 3/3 | 1/9 |
| 22 | KSSQSVLYFSRNKNSVS | WASTRES | QQYHRLRLS | 350 nM | 3/3 | 1/9 |
| 23 | KSSQSVLYESRNKNSVA | WASTVES | QQYHNLPLS | 540 nM | 3/3 | 4/9 |
| 24 | KSSWSVLYESRNKNSVA | WASTRYS | QQYHRLPVS | 560 nM | 3/3 | 1/9 |
| 25 | KSSQSVLYESQNKNSEH | WASTRES | QQYHRLPLS | 1.1 µM | 2/3 | 5/9 |
| 26 | KSSQSVLYESNNNNSVA | WASTDES | QQYHRLPLS | 3.3 µM | 1/3 | 1/9 |
| 27 | KSSQSVLYESRNSNSVR | WASTRES | QQMHRLPLS | 3.4 µM | 2/3 | 0/9 |
| 28 | KSSYSVLYESRNKNFVA | WASTRES | QQYHRLPLS | 5.1 µM | 2/3 | 2/9 |
| 29 | KSSQSVLDESRNKNSVA | WASTRES | QQYHWAPLS | 5.6 µM | 1/3 | 3/9 |
| 30 | KSSQSVLYESRNKNSWA | FASTRES | QQYHRLPLV | 5.6 µM | 2/3 | 4/9 |
| 31 | KSSQSVLYRSRTKNSVA | WASTRES | QQYHRLPLS | 8.2 µM | 2/3 | 0/9 |

The remaining entries, values ahead:

| # | Kd (apparent) | detected | empty controls | CDR-L1 | CDR-L2 | CDR-L3 |
|---|---|---|---|---|---|---|
| 32 | 12 µM | 1/3 | 2/9 | KSSQSVLYEWRNKLSVA | WASTRES | QQHHRLPLS |
| 33 | 14 µM | 1/3 | 5/9 | KSSQSVLYENRNKTMVA | WASTRES | QQYHRLPLS |
| 34 | 17 µM | 2/3 | 3/9 | KSSQSVLYESRNYNMLA | WASTRES | QQYHRLPLS |
| 35 | 25 µM | 3/3 | 8/9 | KSSQSVLYESRNSNSVI | WARTRES | QQYHRLPLS |
| 36 | 46 µM | 3/3 | 6/9 | KSSQYVLYESRNKNSVA | WASDRES | LQYHRLPLS |
| 37 | 98 µM | 1/3 | 4/9 | KSSQSVLYESVNKNSVA | WASTRES | QQYHRPPLS |
| 38 | 130 µM | 1/3 | 3/9 | KSSQSVLYESRNKNSVA | WASTRDS | AQYHRLVLS |
| 39 | 140 µM | 2/3 | 1/9 | KSSQSVLYESRNINSVA | WASTEES | QQYHRLPYS |
| 40 | 650 µM | 1/3 | 3/9 | KSSQSVLYESRNKNSRA | WWSTRES | QQYHRQPLS |
| 41 | no signal | 0/3 | 1/9 | KSSMSVLYESANKNSVQ | WASTRES | QQYHRLPLS |
| 42 | no signal | 0/3 | 2/9 | KSSQSVLYESRNKKSVW | WASTRES | SQYHRLPLS |
| 43 | no signal | 0/3 | 1/9 | KSSQWVLYESMNKNSVP | WASTRES | QQYHRLPLS |
| 44 | no signal | 0/3 | 2/9 | KGSQSVLYESRGKNSVA | WPSTRES | QQYHRLPLS |
| 45 | no signal | 0/3 | 0/9 | KSSQSVLYESRNKNWVA | WASTRES | QQYSILPLS |
| 46 | no signal | 0/3 | 0/9 | KSSQSVLYESRSKNSVW | WASTGES | QQYHRLPLS |
| 47 | no signal | 0/3 | 0/9 | KSSQSVLYESRNFNSVW | WASTRES | QQKHRLPLS |
| 48 | no signal | 0/3 | 0/9 | KSSQSWLYESRNKNIVA | WASTRIS | QQYHRLPLS |
| 49 | no signal | 0/3 | 1/9 | TSSTSVLYESRNKNSVS | WASTRES | QQYHRLPLS |
| 50 | no signal | 0/3 | 2/9 | KSEQSVLYESRNKNSVA | WASTRES | QAYHHLPLS |
| 51 | no signal | 0/3 | 0/9 | KSSQSVLAESRNKNSVA | WASTRES | QQYHRLQLS |
| 52 | no signal | 0/3 | 0/9 | ISSQSVLYESRNKNSYA | WASTRES | QQTHRLPLS |
| 53 | no signal | 0/3 | 3/9 | KSSQSVLYESRNKNSVA | LASTCES | QQFHRLPLS |
| 54 | no signal | 0/3 | 3/9 | KSSQSVLYESRNKNSVA | MASARES | QQVHRLPLS |
| 55 | no signal | 0/3 | 0/9 | KSYQSVLYESRNKNSVA | WASTRES | QFYHRLPLT |
| 56 | no signal | 0/3 | 0/9 | KSSQSVLYESRNKNSVD | WASTRFS | KQYHRLPLS |
| 57 | no signal | 0/3 | 2/9 | KSSQSVLYERRCKNSVA | WASTVES | QQYHRLPLS |
| 58 | no signal | 0/3 | 0/9 | KSSQSVLYEGRNKNSVA | WYSTRES | TQYHRLPLS |
| 59 | no signal | 0/3 | 1/9 | KSSQSVLYEYRHKVSVA | WASTRES | QQYHRLPLS |
| 60 | no signal | 0/3 | 1/9 | WSSQSVLYESRNKNFVA | WASTRES | QQYHRLPLS |
| 61 | no signal | 0/3 | 2/9 | KSSQSVLYESRNKSSGA | WASTPES | QQYHRLPLS |
| 62 | no signal | 0/3 | 0/9 | RSSQSVLYEIRNKNSVA | WASTRES | QQYHRLPLG |
| 63 | no signal | 0/3 | 1/9 | KSSQSVLYESRHKNSGA | WASTRES | QQYHRLPLK |

Again, the first 5 entries without any signal:

{"CDR-L1": "KSSMSVLYESANKNSVQ", "CDR-L2": "WASTRES", "CDR-L3": "QQYHRLPLS", "Kd (apparent)": "no signal", "detected": "0/3", "empty controls": "1/9"}
{"CDR-L1": "KSSQSVLYESRNKKSVW", "CDR-L2": "WASTRES", "CDR-L3": "SQYHRLPLS", "Kd (apparent)": "no signal", "detected": "0/3", "empty controls": "2/9"}
{"CDR-L1": "KSSQWVLYESMNKNSVP", "CDR-L2": "WASTRES", "CDR-L3": "QQYHRLPLS", "Kd (apparent)": "no signal", "detected": "0/3", "empty controls": "1/9"}
{"CDR-L1": "KGSQSVLYESRGKNSVA", "CDR-L2": "WPSTRES", "CDR-L3": "QQYHRLPLS", "Kd (apparent)": "no signal", "detected": "0/3", "empty controls": "2/9"}
{"CDR-L1": "KSSQSVLYESRNKNWVA", "CDR-L2": "WASTRES", "CDR-L3": "QQYSILPLS", "Kd (apparent)": "no signal", "detected": "0/3", "empty controls": "0/9"}